Experimental data reported in article PMC6348381, “Discovery of an MLLT1/3 YEATS Domain Chemical Probe” (Angewandte Chemie (International Ed. in English), 2018).

Chains of the proteins cited; added tags and fusions are not shown. Residues count along the entry.
UniProt P42568, whole entry: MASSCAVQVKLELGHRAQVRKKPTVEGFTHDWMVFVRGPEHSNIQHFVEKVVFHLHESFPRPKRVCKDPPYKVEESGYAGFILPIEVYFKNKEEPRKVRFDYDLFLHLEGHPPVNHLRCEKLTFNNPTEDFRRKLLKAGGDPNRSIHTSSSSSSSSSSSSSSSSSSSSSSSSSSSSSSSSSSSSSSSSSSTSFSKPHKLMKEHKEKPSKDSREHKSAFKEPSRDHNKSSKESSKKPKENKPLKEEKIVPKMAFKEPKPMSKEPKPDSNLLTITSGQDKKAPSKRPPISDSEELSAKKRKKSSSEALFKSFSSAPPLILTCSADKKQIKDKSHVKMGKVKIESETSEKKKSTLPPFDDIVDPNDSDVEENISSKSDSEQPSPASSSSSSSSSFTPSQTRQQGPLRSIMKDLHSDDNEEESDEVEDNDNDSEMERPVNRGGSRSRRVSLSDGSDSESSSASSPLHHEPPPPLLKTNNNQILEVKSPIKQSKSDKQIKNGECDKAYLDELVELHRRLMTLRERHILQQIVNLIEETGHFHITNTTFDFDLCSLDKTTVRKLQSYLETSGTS
UniProt Q03111, 1-138 limits assumed: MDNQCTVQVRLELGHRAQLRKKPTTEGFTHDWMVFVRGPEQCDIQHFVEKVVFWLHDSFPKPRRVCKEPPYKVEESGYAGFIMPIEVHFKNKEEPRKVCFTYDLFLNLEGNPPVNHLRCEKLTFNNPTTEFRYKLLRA

How the values were obtained:
[1] = target: MLLT3 (Homo sapiens, UniProt P42568); assay: NanoBRET assay, full-length MLLT3-NanoLuc / histone H3.3-HaloTag in HEK293 cells; settings: read-out: NanoBRET average IC50, MLLT3-NanoLuc/H3.3-HaloTag, 24 h, in the presence of SAHA, n=3 biological replicates
[2] = target: MLLT1 YD (Homo sapiens, UniProt Q03111); assay: Isothermal titration calorimetry (ITC), MLLT1 YD; type: binding; settings: read-out: MLLT1 YD Kd
[3] = Metabolic stability in primary human hepatocytes; type: in vitro ADME

In the case of C[C@H]1CCCN1Cc1nc2cc(NC(=O)c3ccc4c(cnn4C4CC4)c3)ccc2[nH]1, the IC50 [1] is reported as 967 nM, the Kd [2] is reported as 58 nM and the “metabolic stability t1/2” value [3] is reported as “≈ 30 min”.
